In this experiment the target is T1, phosphorylated Ric-8A(1–491) (rat, UniProt Q80ZG1 1-491, phosphoserine at 435, phosphothreonine at 440 (casein kinase II)).
T1 construct: Ric-8A, rat, N-terminal 491-residue fragment (residues 1-491) of the 530 amino acid full-length protein; His tag removed with TEV protease; vector pET28a; also called pRic-8A; source: E. coli BL21(DE3) RIPL, purified (Source 15Q, SEC), phosphorylated with casein kinase II; not shown: His6, N-terminal, cleaved
T1 sequence (looked up): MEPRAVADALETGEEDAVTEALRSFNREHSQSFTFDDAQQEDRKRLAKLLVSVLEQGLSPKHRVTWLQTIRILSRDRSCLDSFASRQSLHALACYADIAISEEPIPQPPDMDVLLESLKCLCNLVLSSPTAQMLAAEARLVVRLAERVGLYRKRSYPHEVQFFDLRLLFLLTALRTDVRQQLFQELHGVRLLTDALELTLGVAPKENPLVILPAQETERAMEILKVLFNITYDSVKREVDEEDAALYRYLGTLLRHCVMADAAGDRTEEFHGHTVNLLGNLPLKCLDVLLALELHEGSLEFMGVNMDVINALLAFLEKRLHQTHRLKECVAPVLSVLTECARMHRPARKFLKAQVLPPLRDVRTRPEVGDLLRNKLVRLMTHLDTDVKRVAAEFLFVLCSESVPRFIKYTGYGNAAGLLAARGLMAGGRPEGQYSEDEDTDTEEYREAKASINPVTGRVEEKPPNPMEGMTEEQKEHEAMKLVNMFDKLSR
Put plainly: cryo-EM structure; Ric-8A:ΔN31Gαi1:4Nb complex (Nb8109, Nb8117, Nb8119, Nb9156) at 0.4 mg/ml with 0.01% NP40; 3.9 Å reconstruction. The settings on record: both partners purified.

B1: ΔN31Gαi1 (domain or fragment, rat, UniProt P10824 32-354, looked up)
chain: REVKLLLLGAGESGKSTIVKQMKIIHEAGYSEEECKQYKAVVYSNTIQSIIAIIRAMGRLKIDFGDAARADDARQLFVLAGAAEEGFMTAELAGVIKRLWKDSGVQACFNRSREYQLNDSAAYYLNDLDRIAQPNYIPTQQDVLRTRVKTTGIVETHFTFKDLHFKMFDVGGQRSERKKWIHCFEGVTAIIFCVALSDYDLVLAEDEEMNRMHESMKLFDSICNNKWFTDTSIILFLNKKDLFEEKIKKSPLTICYPEYAGSNTYEEAAAYIQCQFEDLNKRKDTKEIYTHFTCATDTKNVQFVFDAVTDVIIKNNLKDCGLF
notes: nucleotide-free in the complex; Expressed from pDest15; also called Δ31NGαi1; Δ31Gαi1; source: E. coli BL21(DE3) RIPL, purified as previously described
With B1, the binding result is recorded as “binds”.

The values are drawn from article PMC7044438 (Nature Communications, 2020).
